The values that follow come from patent US20260021196A1, “HOMOGENEOUS ANTIBODY-CONJUGATES WITH HIGH PAYLOAD LOADING” (SYNAFFIX B.V., priority 2023, published 2026).

Usually IC50 stands for the concentration needed to halve the response being measured. Read a high IC50 as weaker potency in that assay.

This experiment relates to NCI-N87 (HER2 3+) cells. Briefly: In vitro cytotoxicity, resazurin cell viability (Examples 131-133). Particulars: Table 10 / FIG. 24A, mitomycin ADCs with varying DAR, 5 days incubation. Type of experiment: cell-based. On the procedure:
The cells were incubated for 5 days in a humidified atmosphere at 37° C. and 5% CO2. […] After approximately 4 hours in a humidified atmosphere at 37° C. and 5% CO2 the fluorescence was detected with a fluorescence plate reader (Infinite® M1000 Tecan) at 560 nm excitation and 590 nm emission. The relative fluorescent units (RFU) were normalized to cell viability percentage by setting wells without cells at 0% viability and wells with untreated cells at 100% viability (see FIGS. 22A-22C).
After approximately 4 hours in a humidified atmosphere at 37° C. and 5% CO2 the fluorescence was detected with a fluorescence plate reader (Infinite® M1000 Tecan) at 560 nm excitation and 590 nm emission. The relative fluorescent units (RFU) were normalized to cell viability percentage by setting wells without cells at 0% viability and wells with untreated cells at 100% viability (see FIGS. 23A-23B).
The cells were incubated for 5 days in a humidified atmosphere at 37° C. and 5% CO2. […] After approximately 4 hours in a humidified atmosphere at 37° C. and 5% CO2 the fluorescence was detected with a fluorescence plate reader (Infinite® M1000 Tecan) at 560 nm excitation and 590 nm emission. The relative fluorescent units (RFU) were normalized to cell viability percentage by setting wells without cells at 0% viability and wells with untreated cells at 100% viability (see FIGS. 24A-24B).

Substance trastuzumab-(72)2 registered an IC50 of 0.25 nM.
